From PMC10709440, “High-throughput ligand profile characterization in novel cell lines expressing seven heterologous insect olfactory receptors for the detection of volatile plant biomarkers” (Scientific Reports, 2023)
Read-outs that look alike come from different tables or passages of the source.

Tests used:
Drosophila OR10a = molecular target: T1, Drosophila OR10a (Drosophila melanogaster, UniProt Q9VYZ1); experiment: Calcium ion fluorescence (GCaMP6) assay, OR10a stable HEK293 cell line; format: cell-based; conditions: for DF norm AVERAGE OR10a: normalized fluorescence change, values below 0.05 threshold given as 0
T1 construct: expressed in transfected cells
T1 sequence (Q9VYZ1 1-406): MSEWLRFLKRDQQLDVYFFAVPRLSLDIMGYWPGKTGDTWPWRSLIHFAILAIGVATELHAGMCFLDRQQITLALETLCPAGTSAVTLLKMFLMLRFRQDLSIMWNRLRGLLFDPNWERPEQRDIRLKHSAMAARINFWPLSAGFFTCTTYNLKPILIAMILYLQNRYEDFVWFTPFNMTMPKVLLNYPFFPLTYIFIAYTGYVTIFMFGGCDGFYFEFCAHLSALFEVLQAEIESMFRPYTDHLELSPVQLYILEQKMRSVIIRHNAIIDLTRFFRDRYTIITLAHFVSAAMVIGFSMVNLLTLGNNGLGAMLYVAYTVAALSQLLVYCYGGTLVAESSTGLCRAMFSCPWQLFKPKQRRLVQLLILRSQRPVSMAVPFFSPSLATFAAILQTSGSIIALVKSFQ
T1 sequence (Q9VNB5 1-486 partner): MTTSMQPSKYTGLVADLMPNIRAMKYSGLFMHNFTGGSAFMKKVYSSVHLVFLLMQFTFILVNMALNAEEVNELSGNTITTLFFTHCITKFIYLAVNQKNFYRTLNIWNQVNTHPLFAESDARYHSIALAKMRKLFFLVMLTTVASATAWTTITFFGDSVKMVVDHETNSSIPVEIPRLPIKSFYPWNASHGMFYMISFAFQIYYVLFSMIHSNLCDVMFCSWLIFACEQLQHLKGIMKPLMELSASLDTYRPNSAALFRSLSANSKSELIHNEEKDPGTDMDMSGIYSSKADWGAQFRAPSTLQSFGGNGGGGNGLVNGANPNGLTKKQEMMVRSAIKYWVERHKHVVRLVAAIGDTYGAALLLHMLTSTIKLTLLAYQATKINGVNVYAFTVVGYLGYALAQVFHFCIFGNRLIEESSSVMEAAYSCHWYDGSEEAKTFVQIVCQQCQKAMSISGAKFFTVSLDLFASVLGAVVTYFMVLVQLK
Description: (§1) These VUAA1 normalized ∆F values were used to compare the different receptors and ligands.
(§2) The concentration-dependent effect of the reference ligands on their cognate cell lines was examined in more detail. Twelve different ligand concentrations were measured on each cell line in an overall 0.01 μM to 100 μM concentration range with 5 repetitions with three technical replicates each time.
(§3) Twelve thousand to 18,000 cells were plated into each well of a black wall, transparent bottom 384-well microplate (Greiner) 48 h or 72 h before the measurements and were simultaneously treated with 1 μg/mL doxycycline. […] The plate has 24 columns, thus we could record responses in up to eight different cell lines in each plate. On the day of the experiment, the growth medium was replaced with 20 µL assay buffer/well (140 mM NaCl, 5 mM KCl, 2 mM CaCl2, 1 mM MgCl2, 5 mM HEPES-Na, 20 mM glucose, pH 7.3, 340 mOsm). […] Baseline fluorescence (F0) was recorded for 5 s, after which 7 µL VOC buffer (140 mM NaCl, 5 mM KCl, 2 mM CaCl2, 1 mM MgCl2, 5 mM HEPES-Na, 31 mM glucose, 0.1% DMSO, pH 7.3, 340 mOsm) was injected into each well in one row and the fluorescence response was recorded for an additional 30 s, at a rate of one read/sec. VOC solutions (VOC buffer with 4× concentration of the final measured VOC concentration, 9 µL/well was injected) were measured on the same wells in a second round with the same protocol. Each individual concentration of a specific VOC sample was recorded in three wells for the same cell line on the same microplate. The raw data were exported in xls file format, F0 and FMAX values, and the fluorescence intensity changes (∆F) were calculated in Excel (Microsoft) (Supplementary file Data summary.xlsx) using the following equation: ΔF=FMAX-F0/F0 (see also Fig. 1C). On each plate, we recorded the response of each cell line to 50 µM VUAA1. The average of these ∆F values of each cell line were used to calculate the VUAA1-normalized values for the rest of the plate, by dividing VOC response ∆F values by the average VUAA1 response ∆F value of the corresponding OR cell line. Each VOC-OR combination was measured three times as technical replicates. […] The average of these replicates were used as one ∆F and VUAA1-normalized ∆F in the following analysis.
(§4) In the next rows we tested the reference VOCs (or other VOCs known to activate the corresponding cell lines), in order to test if all cell lines are responsive. The remaining rows were used to test VOCs with unknown effect.
(§5) The recorded FMAX, F0, ∆F, VUAA1-normalized ∆F values, as well as the OR name, the name of the tested sample, and the final concentration for each well were copied into supplementary file Data summary.xlsx, that was used to summarize all the plates recorded. Here, the averages of the measurements were calculated for each receptor-VOC-concentration combination.

Drosophila OR85b = molecular target: T2, Drosophila OR85b (Drosophila melanogaster, UniProt Q9VHQ7); experiment: Calcium ion fluorescence (GCaMP6) assay, OR85b stable HEK293 cell line; format: cell-based; conditions: for Average response: OR85b cell line, VUAA1-normalized response, mean of biological replicates; for DF norm AVERAGE OR85b: normalized fluorescence change, values below 0.05 threshold given as 0
T2 construct: expressed in transfected cells
T2 sequence (Q9VHQ7 1-390): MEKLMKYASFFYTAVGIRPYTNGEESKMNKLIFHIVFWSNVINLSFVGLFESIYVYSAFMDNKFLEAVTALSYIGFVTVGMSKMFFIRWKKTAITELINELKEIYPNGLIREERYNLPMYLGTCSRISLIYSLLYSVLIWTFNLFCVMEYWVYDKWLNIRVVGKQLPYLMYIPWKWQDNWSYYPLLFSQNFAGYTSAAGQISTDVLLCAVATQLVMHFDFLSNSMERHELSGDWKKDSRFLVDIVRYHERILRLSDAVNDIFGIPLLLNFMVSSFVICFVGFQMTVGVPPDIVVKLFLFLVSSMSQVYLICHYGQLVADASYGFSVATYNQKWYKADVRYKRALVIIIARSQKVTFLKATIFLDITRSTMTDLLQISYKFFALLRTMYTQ
T2 sequence (Q9VNB5 1-486 partner): T1 sequence (Q9VNB5 1-486 partner)
Description: as §1, §2, §3, §4, §5

[1] = HEK293, read-out: OR10a Average response (VUAA1-normalized)
[2] = HEK293, read-out: OR10a response (VUAA1-normalized response)
[3] = HEK293, read-out: OR85b response (VUAA1-normalized response)

CC(=O)CCC=C(C)C [6-methyl-5-hepten-2-one]
activation at 1 µM (Drosophila OR10a; [1]): 0%
activation at 10 µM (Drosophila OR10a; [1]): 0%
activation at 100 µM (Drosophila OR10a; [1]): 5%
activation at 1 µM (Drosophila OR10a; [2]): 0%
activation at 10 µM (Drosophila OR10a; [2]): 0%
activation at 100 µM (Drosophila OR10a; [2]): 0%
DF norm AVERAGE OR10a (Drosophila OR10a; concentration 1): 0
DF norm AVERAGE OR10a (Drosophila OR10a; concentration 10): 0
DF norm AVERAGE OR10a (Drosophila OR10a; concentration 100): 0
activation at 1 µM (Drosophila OR85b; [3]): 0%
activation at 10 µM (Drosophila OR85b; [3]): 0%
activation at 100 µM (Drosophila OR85b; [3]): 0%
Average response (Drosophila OR85b; cc. 1 µM): 0.00
Average response (Drosophila OR85b; cc. 10 µM): 0.00
Average response (Drosophila OR85b; cc. 100 µM): 0.037
DF norm AVERAGE OR85b (Drosophila OR85b; concentration 1): 0
DF norm AVERAGE OR85b (Drosophila OR85b; concentration 10): 0
DF norm AVERAGE OR85b (Drosophila OR85b; concentration 100): 0
